Laboratory results as given in ChEMBL document CHEMBL1921707 (J Med Chem, 2011).

Sequences of proteins named here, by UniProt entry; tags and fusion partners are left off. A change or cut given only in a name is not applied to a line headed by its entry.
UniProt Q9Y5N1: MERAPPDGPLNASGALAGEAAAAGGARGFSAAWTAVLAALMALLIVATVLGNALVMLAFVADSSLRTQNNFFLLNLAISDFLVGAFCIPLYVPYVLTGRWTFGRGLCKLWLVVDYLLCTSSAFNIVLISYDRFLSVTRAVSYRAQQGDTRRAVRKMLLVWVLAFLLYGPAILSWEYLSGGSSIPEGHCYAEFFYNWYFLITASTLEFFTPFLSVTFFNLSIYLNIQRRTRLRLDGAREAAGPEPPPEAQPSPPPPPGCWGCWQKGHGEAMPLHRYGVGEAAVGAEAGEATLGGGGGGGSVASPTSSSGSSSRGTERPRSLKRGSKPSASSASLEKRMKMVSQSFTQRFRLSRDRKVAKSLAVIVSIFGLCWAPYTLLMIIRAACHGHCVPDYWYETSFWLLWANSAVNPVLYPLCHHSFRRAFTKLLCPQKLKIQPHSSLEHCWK

Molecular target: Histamine H3 receptor (Homo sapiens, UniProt Q9Y5N1)
Assay: Displacement of [3H]histamine from human H3 receptor expressed in HEK293 cells after 1 to 1.5 hrs by scintillation counting
Assay type: cell-based

Q: How did the Ki turn out when `NC(=NCc1ccc(Cl)cc1)SCCCc1cnc[nH]1` [CLOBENPROPIT] was run?
A: 2.82 nM
